## AlphaSeq binding of Ab-95 light chain variants to a spike HR2 peptide

Reference: Engelhart et al. 2022, doi:10.1038/s41597-022-01779-4. File: FLAb, binding data.

The target is the same throughout: PDVDLGDISGINAS, from the HR2 region of SARS-CoV-2 spike.

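Variants in AAYL52 differ from the parent at up to three CDR positions; double and triple changes were sampled at random. In AlphaSeq, yeast of one mating type display the scFv and yeast of the other type display the target. After mating in shaken culture at 30 °C for 16 h, diploids were selected and their barcode pairs sequenced. Read counts were normalised to the haploid input and turned into Kd by a linear fit to BCL2-family pairs of known affinity, for each replicate. Mating was done three times.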

Parent scFv Ab-95: VH joined to VL by a 15-residue (Gly4Ser)3 linker. Changes lie in the light chain CDRs alone.
VH: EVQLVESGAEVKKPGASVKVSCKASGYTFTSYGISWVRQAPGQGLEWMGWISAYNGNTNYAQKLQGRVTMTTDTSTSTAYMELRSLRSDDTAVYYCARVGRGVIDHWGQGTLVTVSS
VL: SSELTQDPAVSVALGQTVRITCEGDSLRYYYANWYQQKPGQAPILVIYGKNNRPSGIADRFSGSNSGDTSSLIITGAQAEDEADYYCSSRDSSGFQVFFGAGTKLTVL

Positions count from residue 1 of the parent VL; D25S puts S in place of D. Numbers give log10(Kd / nM), so 0 is 1 nM and 3 is 1 µM. Smaller is tighter. The mean shown is taken over the replicates in which the pair was detected. "not detected" means that the variant was in the library but no mating with the target was seen in any replicate; the authors take this as a sign of poor binding, and no number exists. Order: sorted from the lowest average up, undetected variants last. Parent in this assay: reference entry 2.31, copy in this library 2.25.

changes	mean, log10 nM	seen in	signal with controls
D25S+Y30G+Q96L	1.10	3/3	2/9
Y31N+V97I	1.45	3/3	3/9
R90Q+Q96P+F98S	1.93	3/3	2/9
G24K+S55T+F98D	2.02	3/3	1/9
K50A+S55G+S93E	2.34	3/3	2/9
S55H+F95C+F98K	2.46	3/3	4/9
K50P+D91M+F98V	2.57	3/3	7/9
K50D+P54R+D91G	2.62	3/3	5/9
Y30M+N52M+S89P	2.94	3/3	5/9
R28V+S88C	2.96	3/3	1/9
Y29F+G49N+S93Q	3.13	3/3	3/9
L27K+G49M+Q96L	3.16	1/3	5/9
E23Q+N51C+D91W	3.18	3/3	4/9
G49A+S55H+G94I	3.23	3/3	7/9
S88G+V97S	3.30	3/3	2/9
N33K+N51M+D91G	3.39	1/3	3/9
D25I+L27I+D91S	3.39	2/3	4/9
D25G+Y29N+N51M	3.41	3/3	2/9
S26K+G49P+Q96K	3.50	2/3	6/9
S26I+Y29D+V97L	3.55	2/3	5/9
S88W+V97S+F98L	3.63	3/3	5/9
N51V+D91W+G94R	3.65	2/3	3/9
S26N+R90T+S92M	3.69	3/3	4/9
R90M+D91W+V97I	3.77	1/3	3/9
Y29R+Y30D+A32K	3.80	3/3	4/9
L27E+K50I+D91V	3.83	2/3	4/9
Y29S+R90S+Q96A	3.91	1/3	1/9
S26T+G49C+S89F	3.95	1/3	1/9
R28D+N33W+N51F	3.95	3/3	3/9
Y30Q+N33I+F98Q	3.96	2/3	5/9
Y30D+G49W+R90S	4.04	3/3	3/9
L27E+R28G+G49K	4.07	2/3	4/9
S26I+L27Q+S88Q	4.09	3/3	1/9
D25T+N33R	4.10	2/3	5/9
K50Y+N52G+F95W	4.17	3/3	5/9
G49E+R90G+D91Q	4.23	3/3	5/9
S92H+V97K+F98L	4.42	2/3	3/9
D25H+N51L	4.42	2/3	5/9
S26T+R53D+S92I	4.42	2/3	2/9
E23D+G49W+N52F	4.43	3/3	5/9
E23I+G24R	4.78	3/3	3/9
G24R+P54W+S89C	4.91	2/3	1/9
S26E+F95V+Q96S	5.47	1/3	1/9
G24S+R53E+F98P	not detected	0/3	0/9
L27F+S88N+V97T	not detected	0/3	2/9
G49P+N51E+P54H	not detected	0/3	1/9
N52W+G94T	not detected	0/3	0/9
D25C+S92E+V97S	not detected	0/3	2/9
G24E+G49N+S88D	not detected	0/3	3/9
R90C+G94E+V97C	not detected	0/3	2/9
E23I+D25S+N51Q	not detected	0/3	0/9
Y31I+F95H+V97D	not detected	0/3	1/9

6 of these entries, quoted again:

changes	mean, log10 nM	seen in	signal with controls
E23I+D25S+N51Q	not detected	0/3	0/9
D25I+L27I+D91S	3.39	2/3	4/9
E23Q+N51C+D91W	3.18	3/3	4/9
K50P+D91M+F98V	2.57	3/3	7/9
Y29S+R90S+Q96A	3.91	1/3	1/9
Y31I+F95H+V97D	not detected	0/3	1/9

As a blank, each scFv also met three strains without target: over library AAYL52, 28% of these pairings were detected, typically at 3.91 and seldom below 2.90. Also given: how often the same scFv was detected with the empty control strains.